These results are taken from US5641861A, “μopioid receptor ligands: agonists and antagonists” (Torrey Pines Institute For Molecular Studies, priority 1995, dated 1997).

Sequences of proteins named here, by UniProt entry; tags and fusion partners are left off. A change or cut given only in a name is not applied to a line headed by its entry.
UniProt P33535, whole entry: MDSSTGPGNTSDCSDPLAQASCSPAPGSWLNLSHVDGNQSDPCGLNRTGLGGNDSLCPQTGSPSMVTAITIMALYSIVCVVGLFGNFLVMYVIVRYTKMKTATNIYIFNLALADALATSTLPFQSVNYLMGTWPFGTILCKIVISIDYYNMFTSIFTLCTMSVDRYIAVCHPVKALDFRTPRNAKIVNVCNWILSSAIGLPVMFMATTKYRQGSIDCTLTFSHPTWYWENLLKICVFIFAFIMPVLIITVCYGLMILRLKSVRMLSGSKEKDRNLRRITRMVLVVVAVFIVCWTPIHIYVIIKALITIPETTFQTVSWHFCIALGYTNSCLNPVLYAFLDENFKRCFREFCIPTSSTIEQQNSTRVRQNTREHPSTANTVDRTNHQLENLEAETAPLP
UniProt P33533, whole entry: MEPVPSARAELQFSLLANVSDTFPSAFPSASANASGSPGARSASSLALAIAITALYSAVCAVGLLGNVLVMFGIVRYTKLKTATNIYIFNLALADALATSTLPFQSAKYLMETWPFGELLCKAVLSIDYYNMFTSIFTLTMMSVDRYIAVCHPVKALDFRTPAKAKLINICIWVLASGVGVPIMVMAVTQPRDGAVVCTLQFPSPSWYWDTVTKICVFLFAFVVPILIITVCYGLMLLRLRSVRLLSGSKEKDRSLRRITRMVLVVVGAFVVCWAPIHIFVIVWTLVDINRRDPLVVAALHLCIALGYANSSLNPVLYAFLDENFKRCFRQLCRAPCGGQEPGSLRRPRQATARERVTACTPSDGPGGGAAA
UniProt P41144: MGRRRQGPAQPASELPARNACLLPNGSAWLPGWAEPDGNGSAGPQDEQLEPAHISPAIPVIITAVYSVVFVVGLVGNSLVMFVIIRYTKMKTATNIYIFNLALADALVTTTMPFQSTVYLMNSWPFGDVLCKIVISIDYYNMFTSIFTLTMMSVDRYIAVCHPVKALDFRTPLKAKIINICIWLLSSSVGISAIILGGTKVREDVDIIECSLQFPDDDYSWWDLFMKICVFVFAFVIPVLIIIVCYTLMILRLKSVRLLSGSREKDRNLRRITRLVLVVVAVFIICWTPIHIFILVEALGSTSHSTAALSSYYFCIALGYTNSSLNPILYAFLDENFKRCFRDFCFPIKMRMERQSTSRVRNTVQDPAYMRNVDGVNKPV

What all share (type): binding
The target in one assay is T1, μ receptor (Rattus norvegicus, UniProt P33535).
T1 construct: radioreceptor assay using rat brain homogenates and [^3 H]-DAMGO as radioligand; tissue Harlan Bioproducts for Science; host or cells: rat brain (cerebellum removed), crude membrane homogenate
As to the kind of experiment: Radioreceptor assay selective for the mu receptor ([3H]-DAMGO). To be noted: Table 10, rat brain homogenates. As for the experimental part:
Following incubation, the suspensions were centrifuged as above, the resulting pellets resuspended in 100 volumes of Tris buffer and the suspensions combined. Membrane suspensions were prepared and used in the same day.
Binding assays were carried out in polypropylene tubes. […] Bound radioactivity was counted on a Beta-plate Liquid Scintillation Counter (Life Technologies, Gaithersburg, Md.) and expressed in counts per minute (cpm). […] Competitive inhibition assays were performed as above using serial dilutions of the peptide mixtures. IC50 values were then calculated using the software […] (ISI, San Diego, Calif.).

A further assay has as its target T2, δ receptors (Rattus norvegicus, UniProt P33533).
T2 construct: Radioreceptor assays selective for δ receptors were performed using rat brain homogenates; tissue Harlan Bioproducts for Science; host or cells: rat brain crude membrane homogenate
As to the kind of experiment: Radioreceptor assay selective for δ receptors ([3H]-naltrindole). The note with it: Table 10; [3H]-naltrindole 0.5 nM, rat brain homogenates. As for the experimental part:
Radioreceptor assays selective for δ receptors were performed using rat brain homogenates as above and [^3 H]-naltrindole (0.5 nM, specific activity 34.7 Ci/mmol) as radioligand in Tris buffer containing 100 μM phenylmethylsulfonyl fluoride (PMSF), 5 mMMgCl2 and 1 mg/ml bovine serum albumin (BSA), pH 7.4. Samples were incubated for 2.5 hr. Standard curves were prepared using 0.10-3200 nM [^3 H]-D-Pen2, Pen5 ]-enkephalin ([^3 H]-DPDPE).

A further assay has as its target T3, κ receptors (Cavia porcellus, UniProt P41144).
T3 construct: tissue homogenates prepared from guinea pig brains (cortex and cerebellum); tissue Harlan Bioproducts for Science; host or cells: guinea pig brain (cortex and cerebellum) homogenate
As to the kind of experiment: Radioreceptor assay selective for κ receptors ([3H]-U69,593). The note with it: Table 10; [3H]-U69,593 3 nM, guinea pig brain homogenates. The protocol: Assays selective for κ receptors were carried out using [^3 H]-U69,593 (3 nM, specific activity 62 Ci/mmol) as the radioligand and tissue homogenates prepared from guinea pig brains (cortex and cerebellum) using Tris buffer containing 100 μM PMSF, 5 mMMgCl2 and 1 mg/ml BSA, pH 7.4. Sample tubes were incubated for 2.5 hr.

pIC50: −log10 of the molar value.

Consider `C[C@@H](NC(=O)[C@@H](N)Cc1ccc(O)cc1)C(=O)NCC(=O)N(C)[C@@H](Cc1ccccc1)C(=O)NCCO` [DAMGO, [D-Ala^2, MePhe^4, Gly-ol^5]enkephalin, reference compound], for which the pIC50 against μ receptor was 8.52; against δ receptors, 6.12; against κ receptors it was 5.60.
